The text below walks through data of article PMC2820364 (The Biochemical journal, 2008).

The chains behind the UniProt entries cited, without tags or fusion partners.
UniProt P42338, whole entry E858H, species assumed: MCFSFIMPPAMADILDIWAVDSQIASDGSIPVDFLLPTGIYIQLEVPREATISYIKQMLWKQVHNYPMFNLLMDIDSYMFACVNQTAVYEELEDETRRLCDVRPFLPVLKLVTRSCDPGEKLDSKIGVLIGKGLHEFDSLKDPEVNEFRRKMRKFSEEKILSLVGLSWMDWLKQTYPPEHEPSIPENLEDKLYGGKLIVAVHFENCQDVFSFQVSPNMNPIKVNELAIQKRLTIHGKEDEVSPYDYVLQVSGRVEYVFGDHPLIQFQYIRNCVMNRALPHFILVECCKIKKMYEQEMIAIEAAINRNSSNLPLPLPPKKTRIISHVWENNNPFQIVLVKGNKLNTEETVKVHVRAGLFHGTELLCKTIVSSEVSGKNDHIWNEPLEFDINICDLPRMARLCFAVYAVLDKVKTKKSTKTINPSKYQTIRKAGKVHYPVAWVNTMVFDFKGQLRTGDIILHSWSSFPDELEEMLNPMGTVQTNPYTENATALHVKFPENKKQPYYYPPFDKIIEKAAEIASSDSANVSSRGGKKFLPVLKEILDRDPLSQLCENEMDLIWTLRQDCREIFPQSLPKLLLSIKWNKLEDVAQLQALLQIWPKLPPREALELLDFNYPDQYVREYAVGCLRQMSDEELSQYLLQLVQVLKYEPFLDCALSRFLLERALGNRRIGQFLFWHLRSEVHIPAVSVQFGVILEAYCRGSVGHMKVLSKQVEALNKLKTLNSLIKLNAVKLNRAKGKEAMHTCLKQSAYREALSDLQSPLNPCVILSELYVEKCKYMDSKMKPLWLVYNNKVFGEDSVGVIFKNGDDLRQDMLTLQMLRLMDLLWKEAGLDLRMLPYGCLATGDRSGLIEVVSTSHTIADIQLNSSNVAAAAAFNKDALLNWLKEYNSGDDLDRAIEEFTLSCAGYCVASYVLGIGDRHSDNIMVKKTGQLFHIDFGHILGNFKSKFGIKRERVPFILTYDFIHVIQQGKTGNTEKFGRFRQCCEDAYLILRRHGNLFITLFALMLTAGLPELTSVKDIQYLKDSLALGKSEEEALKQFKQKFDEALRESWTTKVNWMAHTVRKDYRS
UniProt P42338, whole entry D862Q, species assumed: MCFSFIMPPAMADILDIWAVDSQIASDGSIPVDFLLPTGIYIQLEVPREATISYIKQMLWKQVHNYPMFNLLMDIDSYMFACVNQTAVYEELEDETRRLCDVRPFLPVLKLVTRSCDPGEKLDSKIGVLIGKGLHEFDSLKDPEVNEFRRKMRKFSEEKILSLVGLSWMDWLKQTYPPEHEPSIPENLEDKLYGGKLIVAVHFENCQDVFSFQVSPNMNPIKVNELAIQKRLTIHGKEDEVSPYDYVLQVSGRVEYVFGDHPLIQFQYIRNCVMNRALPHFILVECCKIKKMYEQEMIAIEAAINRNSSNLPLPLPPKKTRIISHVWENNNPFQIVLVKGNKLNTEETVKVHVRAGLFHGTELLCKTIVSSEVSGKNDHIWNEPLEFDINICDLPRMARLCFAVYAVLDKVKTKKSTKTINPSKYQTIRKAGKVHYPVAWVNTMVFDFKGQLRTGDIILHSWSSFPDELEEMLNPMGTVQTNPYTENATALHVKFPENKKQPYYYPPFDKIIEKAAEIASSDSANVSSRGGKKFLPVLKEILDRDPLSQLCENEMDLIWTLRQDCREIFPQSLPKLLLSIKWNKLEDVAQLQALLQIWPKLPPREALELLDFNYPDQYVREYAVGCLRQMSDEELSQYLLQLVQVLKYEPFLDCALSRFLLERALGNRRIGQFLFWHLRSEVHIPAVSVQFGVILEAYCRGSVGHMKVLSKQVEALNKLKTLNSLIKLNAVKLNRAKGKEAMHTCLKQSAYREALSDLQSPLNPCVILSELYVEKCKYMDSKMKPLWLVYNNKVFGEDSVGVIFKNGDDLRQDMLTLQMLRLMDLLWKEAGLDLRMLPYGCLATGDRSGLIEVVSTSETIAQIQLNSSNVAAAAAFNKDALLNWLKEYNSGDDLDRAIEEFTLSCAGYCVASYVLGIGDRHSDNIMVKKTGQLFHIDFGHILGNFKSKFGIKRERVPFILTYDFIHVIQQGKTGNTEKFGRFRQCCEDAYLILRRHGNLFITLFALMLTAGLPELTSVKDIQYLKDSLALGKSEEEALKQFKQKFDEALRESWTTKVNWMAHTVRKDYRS

Molecules are shown by their SMILES.

For one assay, the target named is p110β (E858H) (Homo sapiens, UniProt P42338, E858H). The assay can be described thus: PI3K lipid kinase inhibition assay, p110β E858H mutant. Format: biochemical.
Another assay has as its target p110β (D862Q) (Homo sapiens, UniProt P42338, D862Q). Briefly: PI3K lipid kinase inhibition assay, p110β D862Q mutant. It is filed as biochemical.

Consider `O=c1cc(N2CCOCC2)oc2c(-c3ccccc3)cccc12` [LY294002], for which the IC50 against p110β (E858H) amounted to 360 nM; on p110β (D862Q), 620 nM.
